# Laboratory results taken from US20200010482A1, “INHIBITORS OF BETA SECRETASE” (Janssen Pharmaceutica NV, priority 2017, published 2020).
# Amino acid sequences for entries named in this document (tags omitted). Residues count along the entry.
# UniProt Q9Y5Z0, 63-518 limits assumed: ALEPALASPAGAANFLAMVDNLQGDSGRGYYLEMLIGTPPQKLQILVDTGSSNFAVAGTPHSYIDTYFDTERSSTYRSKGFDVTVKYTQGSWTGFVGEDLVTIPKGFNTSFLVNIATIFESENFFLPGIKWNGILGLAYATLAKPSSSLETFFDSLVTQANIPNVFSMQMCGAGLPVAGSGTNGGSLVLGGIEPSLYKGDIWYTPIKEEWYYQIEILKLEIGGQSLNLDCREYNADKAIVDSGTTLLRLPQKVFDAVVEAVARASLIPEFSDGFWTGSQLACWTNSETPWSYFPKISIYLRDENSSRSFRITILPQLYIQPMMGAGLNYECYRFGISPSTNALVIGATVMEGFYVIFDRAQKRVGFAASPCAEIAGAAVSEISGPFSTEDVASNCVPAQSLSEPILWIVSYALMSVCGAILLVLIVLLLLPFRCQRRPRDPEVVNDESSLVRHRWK
# UniProt P56817, 46-501 limits assumed: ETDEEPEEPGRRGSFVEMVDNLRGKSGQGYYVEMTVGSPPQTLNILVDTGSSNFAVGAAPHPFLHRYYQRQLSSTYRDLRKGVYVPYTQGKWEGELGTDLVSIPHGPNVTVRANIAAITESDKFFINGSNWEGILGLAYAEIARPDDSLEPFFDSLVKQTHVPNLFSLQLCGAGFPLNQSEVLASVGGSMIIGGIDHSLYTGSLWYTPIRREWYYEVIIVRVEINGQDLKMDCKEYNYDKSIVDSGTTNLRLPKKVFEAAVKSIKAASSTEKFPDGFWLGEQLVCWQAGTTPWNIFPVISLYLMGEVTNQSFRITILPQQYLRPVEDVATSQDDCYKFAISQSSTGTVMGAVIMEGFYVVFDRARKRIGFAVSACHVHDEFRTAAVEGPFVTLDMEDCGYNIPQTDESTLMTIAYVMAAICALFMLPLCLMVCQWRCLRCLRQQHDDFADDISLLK
# Assays:
# β-secretase II (BACE2) = β-secretase II (BACE2) (Homo sapiens, UniProt Q9Y5Z0); assay: Biochemical assay, automated (CyclOps), BACE2; settings: automated CyclOps bioassay
# Method: Unless otherwise indicated all biochemicals were purchased from Sigma-Aldrich Chemical Company, Poole, Dorset, U.K. and non-aqueous solvents, of analytical or higher grade, were purchased from ThermoFisher Scientific, Loughborough, U.K. MilliQ water (Elix 5 & MilliQ Gradient; Merck Millipore) was used as the base aqueous solvent to make up the biological buffers. Base assay buffer was prepared by adding a 50 mM solution of citric acid (1.00244; Merck Biosciences) to stirring solution of 50 mM trisodium citrate (1.06448; Merck Biosciences) until a final pH of 5.0 was achieved. […] All assays were routinely carried out in 384-well assay plates (Costar 4514; Corning Life Sciences) and incubated at 37±1° C. for 60 min. prior to reading the endpoint fluorescence intensity. The (7-methoxyl coumarin-4-yl)acetic acid based substrate β-secretase substrate VI (M2465; Bachem) was prepared as a 1 mM stock in 100% DMSO (D/4121/PB08; ThermoFisher). Assay buffer was prepared by adding DMSO to base buffer to a final concentration of 1% (vol./vol.). β-secretase I (18.64 μM; “BACE1”) and β-secretase II (4.65 μM; “BACE2”) were obtained from Janssen Pharmaceutica, Beerse, Belgium and were stored as frozen aliquots (˜20 μl) and thawed as required.
# Typically 12.5 μl of assay buffer was dispensed to rows B to P of the assay plate. To row A was added 18.75 μl of test compound diluted appropriately in assay buffer. A 6.25 μl aliquot of sample was transferred from row A to row B and the sample mixed three times by pipette. The process was repeated down the plate and 6.25 μl of solution discarded at row N post-mix. Rows O and P were designated as the positive and negative controls. To row P was added 6.25 μl base buffer. To rows A to O was added 6.25 μl enzyme (freshly prepared 40 nM BACE1 or 40 nM BACE2) diluted in base buffer. To initiate the assay 6.25 μl of freshly prepared 80 μM substrate, made up by diluting the 1 mM in 100% DMSO solution into HPLC grade water (Optima W6-212; ThermoFisher), was added to all the wells. The assay plate was covered and incubated at 37±1° C. for 60 min. The fluorescence intensity of the wells was read at 360/405 nm (excitation/emission) utilising a nine reads per well protocol (50 ms integration; density of 3, 0.25 mm spacing; SpectraMAX Paradigm plate reader; TUNE cartridge; SoftMax Pro v 6.3 software; Molecular Devices UK Ltd., Wokingham, Berkshire, UK) and outputting the median value of the nine reads as a text file. Data analysis was carried out using Prism software v 6.3 (GraphPad Inc., San Diego, Calif., USA) using the non-linear regression analysis models supplied by the vendor. For IC50 determinations the four parameter logistic variable slope model was used to fit the raw fluorescence intensity data with the ‘bottom’ fixed to the negative control.
# The CyclOps bioassay module consisted of a fraction collection station, a reagent station, liquid handling robotics, plate store and an integrated plate reader (SpectraMAX Paradigm, TUNE cartridge, SoftMax Pro v 6.3; Molecular Devices). The fraction collection station composed of a 384 well collection plate (P-384-240SQ-C; Axygen, Union City, Calif., USA) mounted on a H-portal carriage (Festo AG & Co. KG, Esslingen, Germany), a syringe drive and a two-way six port injection valve fitted with a 200 μl loop (VICI AG International, Schenkon Switzerland). The output of the injection valve was addressable to all the positions of a 384 well collection plate. The reagent station consisted of hydraulically cooled (10-12° C.) aluminium segments; each manufactured to house a SBS microtiter plate footprint. Independent addressable reagent stations were housed within these sections. Where required, custom aluminium housings were used to accommodate standard laboratory plastic ware (e.g. Eppendorf tubes, Falcon tubes, etc.). As and when required the reagent reservoirs were covered and the lids contained holes through which the Teflon-coated probe could access solutions. […]
# BACE1 = BACE1 (Homo sapiens, UniProt P56817); assay: BACE1 biochemical FRET based assay; settings: recombinant BACE1 0.04 μg/ml, 20 μM substrate, 450 min, pH 5.0
# Source text: This assay is a Fluorescence Resonance Energy Transfer Assay (FRET) based assay. The substrate for this assay is an APP derived 13 amino acids peptide that contains the ‘Swedish’ Lys-Met/Asn-Leu mutation of the amyloid precursor protein (APP) beta-secretase cleavage site. This substrate also contains two fluorophores: (7-methoxycoumarin-4-yl) acetic acid (Mca) is a fluorescent donor with excitation wavelength at 320 nm and emission at 405 nm and 2,4-Dinitrophenyl (Dnp) is a proprietary quencher acceptor. […] Upon cleavage by BACE1, the fluorophore Mca is separated from the quenching group Dnp, restoring the full fluorescence yield of the donor. The increase in fluorescence is linearly related to the rate of proteolysis.
# Briefly in a 384-well format recombinant BACE1 protein in a final concentration of 0.04 μg/ml is incubated for 450 minutes at room temperature with 20 μM substrate in incubation buffer (50 mM Citrate buffer pH 5.0, 0.05% PEG) in the presence of compound or DMSO. Next the amount of proteolysis is directly measured by fluorescence measurement (excitation at 320 nm and emission at 405 nm) at different incubation times (0, 30, 60, 90, 120 and 450 min). For every experiment a time curve (every 30 min between 0 min and 120 min) is used to determine the time where we find the lowest basal signal of the high control. The signal at this time (Tx) is used to subtract from the signal at 450 min. Results are expressed in RFU, as difference between T450 and Tx.
# A best-fit curve is fitted by a minimum sum of squares method to the plot of % Controlmin versus compound concentration. From this an IC50 value (inhibitory concentration causing 50% inhibition of activity) can be obtained. • LC=Median of the low control values=Low control: Reaction without enzyme • HC=Median of the High control values=High Control: Reaction with enzyme
# % Effect=100−[(sample−LC)/(HC−LC)*100]
# % Control=(sample/HC)*100
# % Controlmin=(sample−LC)/(HC−LC)*100
SMILES,AUTOMATED ASSAY BACE2 pIC50 (β-secretase II (BACE2)),BIOCHEMICAL FRET BASED ASSAY pIC50 (BACE1),BIOCHEMICAL FRET BASED ASSAY pIC50 (BACE1; tested form: formate),AUTOMATED ASSAY BACE2 pIC50 (β-secretase II (BACE2); tested form: free base),BIOCHEMICAL FRET BASED ASSAY pIC50 (BACE1; tested form: free base)
COc1ncc(-c2c(C)noc2C)c2c1C[C@]1(c3ccc(F)cc3F)N=C(N)SC[C@@H]1C2,6.18,7.83,–,–,–
COc1ncc(-c2ccc(F)cc2C)c2c1C[C@]1(c3cc(OCC4CCOCC4)ccc3F)N=C(N)SC[C@@H]1C2,6.29,–,7.86,–,–
COc1ncc(-c2c(C)noc2C)c2c1C[C@]1(c3cc(OCC4CCOCC4)ccc3F)N=C(N)SC[C@@H]1C2,6.21,–,6.94,–,–
COc1ncc(-c2c(C)noc2C)c2c1C[C@]1(c3cc(OCc4ncccn4)ccc3F)N=C(N)SC[C@@H]1C2,6.02,–,7.44,–,–
COc1ncc(-c2cc(C)nc3c2CCCC3)c2c1C[C@]1(c3ccc(F)cc3F)N=C(N)SC[C@@H]1C2,5.74,6.6,–,–,–
COc1ccccc1-c1cnc(OC)c2c1C[C@H]1CSC(N)=N[C@@]1(c1ccc(F)cc1F)C2,6.24,7.3,–,–,–
COc1ccc(F)c(-c2cnc(OC)c3c2C[C@H]2CSC(N)=N[C@@]2(c2ccc(F)cc2F)C3)c1,–,–,–,6.68,8.22
COc1ncc(-c2c(C)noc2C)c2c1C[C@]1(c3cc(OCC4CC4)ccc3F)N=C(N)SC[C@@H]1C2,6.19,–,5.91,–,–
